Reference: paper PMC7924963 (Journal of the American Chemical Society, 2020)

Tests used:
native MS = molecular target: the molecule itself; assay: native MS
cross-linking = molecular target: the molecule itself; assay: cross-linking

B1: C99, the 99-residue C-terminal domain of the human amyloid precursor protein (APP) (domain or fragment)
chain: not shown
stoichiometry N (native MS): 3
stoichiometry N (cross-linking): 2
